Cyclic peptide permeability, from CycPeptMPDB

Data: CycPeptMPDB; original report Townsend et al. 2020, doi:10.26434/chemrxiv.13335941.v1.

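The data file gives no further conditions (lipid, pH, time, direction or concentration), and values from different papers need not be comparable. Other peptides of the study may be missing here. Peptides that the database sets to -10, its floor, are left out.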

PAMPA measures passive passage through an artificial lipid membrane.
Permeability is in 10^-6 cm/s, converted from the database's log10 values; higher is more permeable.

PAMPA (10^-6 cm/s),compound
1.5,CC(C)C[C@@H]1NC(=O)[C@H](C)N(C)C(=O)[C@@H]2CCCN2C(=O)[C@H](Cc2ccccc2)NC(=O)CN(Cc2ccccc2)C(=O)[C@H]2CCCN2C(=O)[C@@H](CC(C)C)NC1=O
8.5,CC(C)C[C@@H]1C(=O)N[C@@H](Cc2ccccc2)C(=O)N[C@H](C)C(=O)N(C)[C@H](CC(C)C)C(=O)N(C)[C@@H](CC(C)C)C(=O)N2CCC[C@@H]2C(=O)N1C
1.3,CC(C)C[C@@H]1NC(=O)[C@@H](CC(C)C)NC(=O)[C@H](C)NC(=O)[C@H](Cc2ccccc2)NC(=O)[C@H](CC(C)C)N(C)C(=O)[C@@H]2CCCN2C1=O
2,CC(C)C[C@@H]1NC(=O)[C@H](CC(C)C)N(C)C(=O)C[C@H](Cc2ccccc2)NC(=O)[C@@H]2CCCN2C(=O)[C@H](Cc2ccccc2)NC(=O)[C@@H](CC(C)C)N(C)C(=O)[C@@H]2CCCN2C1=O
6.5,CC(C)C[C@@H]1C(=O)N[C@H](CC(C)C)C(=O)N2CCC[C@H]2C(=O)N[C@H](CC(C)C)C(=O)N[C@@H](Cc2ccccc2)C(=O)N[C@@H](Cc2ccccc2)CC(=O)N1C
0.63,CC(C)C[C@@H]1C(=O)N[C@H](CC(C)C)C(=O)N2CCC[C@@H]2C(=O)N[C@H](CC(C)C)C(=O)N[C@@H](Cc2ccccc2)C(=O)N[C@H](C)C(=O)N1C
2.2,CC(C)C[C@@H]1C(=O)N[C@@H](Cc2ccccc2)C(=O)N(C)[C@H](C)C(=O)N[C@H](CC(C)C)C(=O)N[C@@H](Cc2ccccc2)CC(=O)N2CCC[C@H]2C(=O)N1C
0.076,CC(C)C[C@@H]1NC(=O)[C@H](C)NC(=O)[C@@H]2CCCN2C(=O)[C@H](Cc2ccccc2)NC(=O)CN(Cc2ccccc2)C(=O)[C@H]2CCCN2C(=O)[C@@H](CC(C)C)NC1=O
4.1,CCCN1CC(=O)N(C)[C@H](CC(C)C)C(=O)N(C)[C@@H](CC(C)C)C(=O)N2CCC[C@H]2C(=O)N(Cc2ccccc2)CC(=O)N[C@@H](Cc2ccccc2)C(=O)N2CCC[C@H]2C1=O
0.16,CC(C)C[C@@H]1NC(=O)[C@H]2CCCN2C(=O)[C@H](CC(C)C)NC(=O)[C@@H](CC(C)C)NC(=O)[C@@H](C)NC(=O)[C@H](Cc2ccccc2)NC1=O
2.1,CCCN1CC(=O)N(C)[C@H](CC(C)C)C(=O)N(Cc2ccccc2)CC(=O)N2CCC[C@@H]2C(=O)N(C)[C@@H](CC(C)C)C(=O)N[C@@H](Cc2ccccc2)C(=O)N2CCC[C@@H]2C1=O
2.3,CC(C)C[C@H]1C(=O)N[C@@H](Cc2ccccc2)C(=O)N2CCC[C@H]2C(=O)N(C)[C@@H](C)C(=O)N(Cc2ccccc2)CC(=O)N[C@@H](Cc2ccccc2)CC(=O)N2CCC[C@H]2C(=O)N1C
1.4,CC(C)C[C@@H]1NC(=O)[C@H](C)N(C)C(=O)[C@@H]2CCCN2C(=O)[C@H](Cc2ccccc2)NC(=O)[C@H](CC(C)C)N(C)C(=O)[C@@H]2CCCN2C(=O)[C@H](CC(C)C)NC1=O
1.3,CC(C)C[C@@H]1NC(=O)[C@@H]2CCCN2C(=O)C[C@H](Cc2ccccc2)NC(=O)[C@@H](CC(C)C)NC(=O)C[C@H](Cc2ccccc2)NC(=O)[C@H]2CCCN2C(=O)[C@H](Cc2ccccc2)NC1=O
1.6,CC(C)C[C@@H]1NC(=O)[C@@H](CC(C)C)NC(=O)[C@H](C)NC(=O)[C@H](Cc2ccccc2)NC(=O)CN(Cc2ccccc2)C(=O)[C@@H]2CCCN2C1=O
1.2,CC(C)C[C@@H]1C(=O)N[C@@H](Cc2ccccc2)CC(=O)N2CCC[C@H]2C(=O)N[C@H](CC(C)C)C(=O)N[C@@H](Cc2ccccc2)C(=O)N(C)[C@@H](C)C(=O)N1C
0.6,CCCN1CC(=O)N[C@H](CC(C)C)C(=O)N[C@@H](Cc2ccccc2)CC(=O)N2CCC[C@H]2C(=O)N[C@@H](CC(C)C)C(=O)N[C@@H](Cc2ccccc2)C(=O)N2CCC[C@H]2C1=O